In patent US8391959B2, “Composition for improving efficiency of drug delivery” (Tel HaShomer Medical Research Infrastructure and Services …, priority 2004, dated 2013):

System: striatum of normal Sprague-Dawley (SD) rats
Test: Cytotoxic tissue response after CED in rat striatum, T2-weighted and diffusion-weighted MRI 24 hours post treatment
Settings: efficient prolonged (90 minutes) CED, at the site of the catheter tip
Protocol: The resultant solution was infused into the striatum of normal Sprague-Dawley (SD) rats (males, 250-300 grams). T1-weighted MR images were acquired immediately post treatment to assess the extent of convection. Additionally, T2-weighted and diffusion-weighted MR images were acquired 24 hours post treatment to assess the response of the tissue and its correlation to the extent of convection.
In order to obtain a wide range in volumes of distribution, the infusion times were varied between 17 to 60 minutes. 13 rats were treated with Carboplatin (4 mg/ml, 17 minutes infusion). In order to obtain a wide range in volumes of distributions, in 6 out of those, the composition viscosity was increased by adding sucrose to the solution prior to infusion (Carboplatin 4 mg/ml, sucrose concentration-12%).
Early assessment of tissue response was performed using diffusion-weighted and T2-weighted MR images. The diffusion-weighted images were obtained by acquiring conventional T2-weighted images with the addition of diffusion-weighting gradients that filter out the signal from high mobility water molecules and sensitize the MR images to molecular diffusion/mobility [Stejskal et al. supra]. […]

“human serum albumin: non-toxic infusate (human serum albumin solutions 0.2%, 1.0% and 2.5%)” was tested, and the “enhancement on T2-weighted and diffusion-weighted MR images” value was “minor enhancement”.
